Measured values as given in PubChem BioAssay AID434973 (Sanford-Burnham Center for Chemical Genomics, 2010).
This is a selection; strong and weak results do not stand in their true shares. Some of these compounds have results that are not shown, active ones among them. Calls of active or inactive are those of the source.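 How the source made its calls: active means inhibition above about 50% at the single test dose (limit read from the data); inactive means the rest.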

The chains behind the UniProt entries cited, without tags or fusion partners. Residues count along the entry.
UniProt Q9BQF6, 706-1050 limits assumed: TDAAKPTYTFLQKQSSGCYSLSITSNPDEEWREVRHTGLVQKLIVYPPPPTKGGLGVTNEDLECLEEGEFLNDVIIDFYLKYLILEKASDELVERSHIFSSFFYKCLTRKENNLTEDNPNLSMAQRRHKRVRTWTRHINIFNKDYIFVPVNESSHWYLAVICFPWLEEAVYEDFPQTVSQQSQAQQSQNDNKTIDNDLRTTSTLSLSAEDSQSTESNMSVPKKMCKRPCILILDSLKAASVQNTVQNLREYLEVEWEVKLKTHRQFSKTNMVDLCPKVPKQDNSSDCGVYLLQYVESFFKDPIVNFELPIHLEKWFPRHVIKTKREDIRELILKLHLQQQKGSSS

Molecular target: Sentrin-specific protease 7 (Homo sapiens) (UniProt Q9BQF6)
Assay: SENP7 protease inhibitors, primary screen, biochemical, luminescence, uHTS (AID 434973);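 further: plate controls were DMSO with enzyme for no effect and no enzyme buffer wells for full effect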
Conditions: recombinant SENP7, Z-RLRGG-aminoluciferin luminescence, 40 min; at 5 µM; stronger effect = higher value

Compound | inhibition
COc1cc(C(=O)NCC2(N(C)C)CCCCC2)c([N+](=O)[O-])cc1OC | inactive: -9.84%
CN(C)C1(CNC(=O)c2ccc(Br)cc2)CCCCC1 | inactive: 5.9%
O=C(NCC1(N2CCCCC2)CCCCC1)c1cccc(Cl)c1 | inactive: -5.23%
COc1ccc(Cl)cc1C(=O)NCC1(N(C)C)CCCCC1 | inactive: 7.42%
COc1cccc(C(=O)NCC2(N3CCCCC3)CCCCC2)c1 | inactive: 4.06%
O=C(OC1CN2CCC1CC2)C(CO)(c1ccccc1)c1ccccc1 (centres undefined) | inactive: 7.01%
CN(C)c1cccc(C(=O)NCC2(N(C)C)CCCCC2)c1 | inactive: -3.69%
CC(C)Oc1ccc(C(=O)NCC2(N(C)C)CCCCC2)cc1 | inactive: -3%
COc1ccc(Br)c(C(=O)NCC2(N3CCCCC3)CCCCC2)c1 | inactive: 9.74%
CN1[C@@H]2CC[C@H]1CC(OC(=O)C(O)(c1ccccc1)c1ccccc1)C2 (some centres undefined) | inactive: 6.69%
O=C(NCC1(N2CCCCC2)CCCCC1)c1cc([N+](=O)[O-])ccc1Cl | inactive: 4.37%
Cc1ccc(C(=O)NCC2(N3CCCCC3)CCCCC2)cc1 | inactive: -0.737%
CC(C)N1C(=O)CC2(CCN(CCOC(=O)C(O)(c3ccccc3)c3ccccc3)CC2)C1=O | inactive: -0.0858%
COc1cc(SC)ccc1C(=O)NCC1(N(C)C)CCCCC1 | inactive: 2.31%
CCN(CC)CC(C)C(C)OC(=O)C(O)(c1ccccc1)c1ccccc1 (centres undefined) | inactive: 3.33%
CN(C)c1ccc(C(=O)NCC2(N(C)C)CCCCC2)cc1 | inactive: 3.79%
CN(C)C1CCCC1OC(=O)C(O)(c1ccccc1)c1ccccc1 (centres undefined) | inactive: 2.96%
Cc1ccccc1C(=O)NCC1(N2CCCCC2)CCCCC1 | inactive: 2.95%
O=C(NCC1(N2CCCCC2)CCCCC1)c1cccc(Br)c1 | inactive: 0.0217%
CCN1CCCC(OC(=O)C2(O)c3ccccc3C=Cc3ccccc32)C1 (centres undefined) | inactive: -3.45%
Cc1cc(C(=O)NCC2(N3CCCCC3)CCCCC2)ccc1[N+](=O)[O-] | inactive: 11%
COc1ccc(C(=O)NCC2(N(C)C)CCCCC2)cc1 | inactive: -10.6%
O=C(NCC1(N2CCCCC2)CCCCC1)c1cc(F)c(F)cc1Cl | inactive: 4.85%
C=CCN1CCN(CCOC(=O)C(O)(c2ccccc2)c2ccccc2)CC1 | inactive: 0.442%
